Key:
[1] = biological target: human α2C adrenergic receptor (Homo sapiens, UniProt P18825); test: Agonist activity: inhibition of forskolin-stimulated cAMP synthesis; type: cell-based; conditions: stably transfected cells expressing human α2C
[2] = biological target: human α2A adrenergic receptor (Homo sapiens, UniProt P08913); test: Radioligand binding assay, [3H]rauwolscine competition; conditions: cloned human α2A, LM(tk-) cell membranes

By UniProt entry, the sequences of proteins in these tests, tags left out.
UniProt P18825, whole entry, looked up: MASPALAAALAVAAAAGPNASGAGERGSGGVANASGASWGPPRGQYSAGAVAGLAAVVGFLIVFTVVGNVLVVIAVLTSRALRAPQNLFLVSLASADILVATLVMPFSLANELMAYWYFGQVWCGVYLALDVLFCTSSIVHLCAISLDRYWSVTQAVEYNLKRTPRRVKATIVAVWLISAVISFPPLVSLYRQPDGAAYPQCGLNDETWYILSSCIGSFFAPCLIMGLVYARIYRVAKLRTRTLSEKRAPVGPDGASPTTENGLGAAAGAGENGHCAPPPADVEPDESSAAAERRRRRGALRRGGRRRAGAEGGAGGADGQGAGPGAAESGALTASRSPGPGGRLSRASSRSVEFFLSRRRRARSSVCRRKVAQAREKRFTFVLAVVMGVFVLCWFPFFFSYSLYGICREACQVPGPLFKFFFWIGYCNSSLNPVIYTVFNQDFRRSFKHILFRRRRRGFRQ
UniProt P08913, whole entry, looked up: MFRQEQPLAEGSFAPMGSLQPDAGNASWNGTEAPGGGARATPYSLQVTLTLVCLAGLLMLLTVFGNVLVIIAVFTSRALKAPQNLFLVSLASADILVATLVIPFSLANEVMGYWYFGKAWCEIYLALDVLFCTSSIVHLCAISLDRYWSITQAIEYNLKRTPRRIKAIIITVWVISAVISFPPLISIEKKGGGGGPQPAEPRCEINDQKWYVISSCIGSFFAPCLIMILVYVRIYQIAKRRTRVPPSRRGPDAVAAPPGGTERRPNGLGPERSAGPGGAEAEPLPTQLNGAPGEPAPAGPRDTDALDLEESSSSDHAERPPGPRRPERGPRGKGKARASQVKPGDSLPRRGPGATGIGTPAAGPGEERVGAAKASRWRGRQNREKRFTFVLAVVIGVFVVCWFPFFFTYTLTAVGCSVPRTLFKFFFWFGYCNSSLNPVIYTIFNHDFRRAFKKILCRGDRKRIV

SMILES: c1nc2ccc(NC3=NCCN3)cc2s1
- pEC50 Alpha-2 C [1]: 8.26
- pKi Alpha-2 A [2]: 8.07

SMILES: c1nc2ccc(NC3=NCCS3)cc2s1
- pEC50 Alpha-2 C [1]: 7.77

From US6723741B2, “Benzimidazoles and benzothiazoles and uses thereof” (Synaptic Pharmaceutical Corporation, priority 1996, dated 2004)
